US20210008201A1, “ANTIBODIES FOR EPIDERMAL GROWTH FACTOR RECEPTOR 3 (HER3)” (NOVARTIS AG, priority 2011, published 2021)

Test system: A253 SCCHN model
Test: In vivo A253 xenograft
Design: species or system nude mice
Settings: single agent
Protocol: A253 cells were cultured in DMEM containing 10% heat-inactivated fetal bovine serum without antibiotics until the time of implantation. A253 cells were harvested in exponential growth. Five million cells in 200 μl PBS were subcutaneously implanted into the upper right flank of nude mice. On Day 25, tumors were measured and animals with a tumor volume of approximately 200 mm^3 were enrolled in the efficacy study. In general, a total of 9 animals per group were enrolled in efficacy studies. For single-agent and combination studies, animals were dosed intravenously via lateral tail vein injection with MOR10703 or cetuximab.

Question: With “cetuximab: HER1 (EGFR) inhibitor, Erbitux/Cetuximab (Imclone) [reference compound]” as the substance, how does the tumor growth read?
Answer: tumor stasis
